As a reminder, the inhibition is the change of the read-out against control, counted positive when it falls.

Amino acid sequences for entries named in this document (tags omitted). Residues count along the entry.
UniProt O14672, 214-748 limits assumed: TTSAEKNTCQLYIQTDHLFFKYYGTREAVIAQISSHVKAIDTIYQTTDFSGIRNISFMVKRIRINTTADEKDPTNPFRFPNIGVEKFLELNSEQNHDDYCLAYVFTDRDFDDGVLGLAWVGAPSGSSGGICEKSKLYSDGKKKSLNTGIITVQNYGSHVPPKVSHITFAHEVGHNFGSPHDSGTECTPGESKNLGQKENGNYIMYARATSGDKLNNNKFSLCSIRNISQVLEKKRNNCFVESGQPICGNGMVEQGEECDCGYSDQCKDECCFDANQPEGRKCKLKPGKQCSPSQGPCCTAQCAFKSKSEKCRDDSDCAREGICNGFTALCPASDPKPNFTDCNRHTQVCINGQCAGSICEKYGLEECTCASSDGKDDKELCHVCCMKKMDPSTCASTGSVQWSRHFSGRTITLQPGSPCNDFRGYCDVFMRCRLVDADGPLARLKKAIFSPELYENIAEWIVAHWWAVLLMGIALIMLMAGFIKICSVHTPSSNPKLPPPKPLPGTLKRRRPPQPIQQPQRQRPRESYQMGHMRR

The entries are a selection whose mix differs from that of the whole data set. Calls of active or inactive are those of the source.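 How the source made its calls: active means inhibition above a per-campaign cutoff equal to the mean of compounds falling between control-based bounds plus 3 SD (cut at about 20% in these data); inactive means the rest.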

The text below walks through data of PubChem BioAssay AID720582 (The Scripps Research Institute Molecular Screening Center, 2013).

The target in this assay is Disintegrin and metalloproteinase domain-containing protein 10 (Homo sapiens) (UniProt O14672). The assay can be described thus: human ADAM10 inhibitors, primary screen, biochemical, QFRET, HTS (AID 720582).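 Further: 0% = DMSO wells while the 100% control is not disclosed.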 The settings on record: recombinant ADAM10, EDANS/DABCYL FRET peptide cleavage, 3 h; at 7 µM; active compounds read high.
As to `O=[N+]([O-])c1cc([N+](=O)[O-])c(-n2nnc3ccccc32)c([N+](=O)[O-])c1`, the inhibition was inactive: -4.95%. For the molecule `CN(Cc1cccnc1)C(=O)COc1ccc(Cl)c(Cl)c1.O=[N+]([O-])c1cc([N+](=O)[O-])c(O)c([N+](=O)[O-])c1`, the inhibition is inactive: -5.01%. As for `O=[N+]([O-])c1cc([N+](=O)[O-])c(-c2cnn(-c3ccccc3)c2)c([N+](=O)[O-])c1`, the figure is inactive: 2.73%; as for `Cc1nc2ccc3ccccc3c2s1.O=[N+]([O-])c1cc([N+](=O)[O-])c(O)c([N+](=O)[O-])c1`, inactive: 8.33%. The same measure for `O=[N+]([O-])c1cc([N+](=O)[O-])c(Nc2nnnn2CCO)c([N+](=O)[O-])c1`: inactive: -1.64%; for `CCOC(=O)C(CC)C1=NC(C)(C)Cc2ccccc21.O=[N+]([O-])c1cc([N+](=O)[O-])c(O)c([N+](=O)[O-])c1` (configuration not stated): inactive: 2.9%; for `CN1CCCCC1COC(=O)C1(O)c2ccccc2CCc2ccccc21` (configuration not stated): inactive: -1.55%.

As for `COc1ccccc1OP(C)(=O)Nc1c(C)cccc1C` (configuration not stated), the inhibition is inactive: -1.32%. On to `CP(=O)(Nc1ccc(SC(F)(F)F)cc1)Oc1ccccc1` (configuration not stated), for which the inhibition is inactive: 1.88%. The same measure for `CCCOc1ccc(NP(C)(=O)Oc2ccc(Cl)cc2)cc1` (configuration not stated): inactive: 3.66%. The same measure for `COc1ccc(-c2ccccn2)cc1.O=[N+]([O-])c1cc([N+](=O)[O-])c(O)c([N+](=O)[O-])c1`: inactive: 1.21%. As for `O=C(O)c1cccc(Nc2c([N+](=O)[O-])cc([N+](=O)[O-])cc2[N+](=O)[O-])c1`, the figure is inactive: 13.1%; as for `CC1=NCCc2c1[nH]c1ccccc21.O=[N+]([O-])c1cc([N+](=O)[O-])c(O)c([N+](=O)[O-])c1`, inactive: -38.6%; as for `COc1ccccc1OP(C)(=O)Nc1cccc(Br)c1` (configuration not stated), inactive: 7.07%. For `Cc1cc(C)cc(OP(C)(=O)Nc2ccc(C)cc2C)c1` (configuration not stated), the inhibition is inactive: 5.91%. The same measure for `CCOC(=O)c1ccc(NP(C)(=O)Oc2cc(C)cc(C)c2)cc1` (configuration not stated): inactive: 1.72%; for `CP(=O)(Nc1cccc(Br)c1)Oc1ccccc1` (configuration not stated): inactive: 1.93%. Turning to `Cc1cc(C)cc(OP(C)(=O)Nc2ccccn2)c1` (configuration not stated), the inhibition is inactive: -4.42%.

Regarding `Cc1ccc(C)c(NP(C)(=O)Oc2ccccc2)c1` (configuration not stated), the inhibition was inactive: 3.69%.

`CCN(CC)CCCOC(=O)C(O)(c1ccccc1)c1ccccc1`: the inhibition is inactive: -6.75%. `COc1ccccc1-c1ccccn1.O=[N+]([O-])c1cc([N+](=O)[O-])c(O)c([N+](=O)[O-])c1`: the inhibition is inactive: -7.9%. In the case of `O=[N+]([O-])c1cc([N+](=O)[O-])c(Nc2cccnc2)c([N+](=O)[O-])c1`, the inhibition was inactive: 5.05%. Regarding `CC(C)(C)c1ccc(OP(C)(=O)Nc2ccc(SC(F)(F)F)cc2)cc1` (configuration not stated), the inhibition is inactive: -3.85%. The same measure for `Cc1cccc(C)c1OP(C)(N)=O` (configuration not stated): inactive: 7.88%. As for `O=[N+]([O-])c1ccc2c(c1)C=Nc1ccccc1O2`, the figure is inactive: 10.8%; as for `CCOC(=O)c1ccc(NP(C)(=O)Oc2ccccc2)cc1` (configuration not stated), inactive: -12.7%; as for `COc1ccccc1OP(C)(=O)Nc1ccc(C)cc1` (configuration not stated), inactive: -18.2%.

For the molecule `Cc1ccc(NP(C)(=O)Oc2ccccc2)c(C)c1` (configuration not stated), the inhibition was inactive: -6.71%. `COc1ccccc1OP(C)(=O)Nc1cc(Cl)ccc1C` (configuration not stated): the inhibition was inactive: -6.8%. The same measure for `COc1ccc(OP(C)(=O)Nc2cccc(F)c2)cc1` (configuration not stated): inactive: 0.02%; for `Cc1cc(C)cc(OP(C)(N)=O)c1` (configuration not stated): inactive: 5.44%; for `CP(=S)(Nn1cnnc1)Oc1ccccc1` (configuration not stated): inactive: 4.72%. The same measure for `COc1ccccc1OP(C)(=O)Nc1ccccc1` (configuration not stated): inactive: -10.4%; for `CP(=O)(Nc1ccccc1Br)Oc1ccccc1` (configuration not stated): inactive: -2.68%; for `CP(=O)(Nc1ccc(SC(F)(F)F)cc1)Oc1ccc(Cl)cc1` (configuration not stated): inactive: 5.72%. Consider `Cc1cccc(C)c1OP(C)(=O)Nc1ccc(SC(F)(F)F)cc1` (configuration not stated), for which the inhibition was inactive: -49.2%. On to `CP(=O)(Oc1ccccc1)OC(c1ccccc1)C(F)(F)F` (configuration not stated), for which the inhibition was inactive: 4.95%. For `CCc1ccc(OP(C)(=O)N2CCN(c3ccc([N+](=O)[O-])cc3)CC2)cc1` (configuration not stated), the inhibition is inactive: 0.39%. The same measure for `CP(=O)(NC(=O)Nc1ccccc1)Oc1ccccc1` (configuration not stated): inactive: 1.25%; for `Cc1cc(C)cc(OP(C)(=O)Nc2ccc(SC(F)(F)F)cc2)c1` (configuration not stated): inactive: 3.31%. The same measure for `CCOP(C)(=S)SCC(=O)NC(C)C(=O)O` (configuration not stated): inactive: 7.88%; for `O=[N+]([O-])c1cc([N+](=O)[O-])c(O)c([N+](=O)[O-])c1.c1ccc(Oc2ccncc2)cc1`: inactive: 3.24%; for `CCOC(=O)c1ccc(NP(C)(=O)Oc2ccc(OC)cc2)cc1` (configuration not stated): inactive: -2.97%. The same measure for `CP(=O)(Nc1ccccn1)Oc1ccc(Cl)cc1` (configuration not stated): inactive: -4.14%; for `CCN(CC)CC(O)COC(=O)C(O)(c1ccccc1)C1CCCCC1` (configuration not stated): inactive: 3.66%; for `COc1ccc(OP(C)(=O)Nc2ccc(Br)cc2)cc1` (configuration not stated): inactive: 2.52%. `CP(=O)(Oc1ccccc1)N1CCOC1=O` (configuration not stated): the inhibition was inactive: 5.4%. As for `CCc1ccc(OP(C)(=O)Nc2cccnc2)cc1` (configuration not stated), the figure is inactive: -7.49%; as for `COc1ccccc1OP(C)(=O)Nc1c(C)n(C)n(-c2ccccc2)c1=O` (configuration not stated), inactive: 1.9%; as for `O=C(OCCCN1CCCC1)C(O)(c1ccccc1)C1CCCCC1` (configuration not stated), inactive: -4.06%. As for `CP(=O)(Nc1ccc(Cl)cc1)Oc1ccc(F)cc1` (configuration not stated), the figure is inactive: 6.47%; as for `CC(C)(C)c1ccc(OP(C)(=O)O)cc1`, inactive: -3.5%; as for `COc1ccccc1OP(C)(=O)Nc1ccccc1Br` (configuration not stated), inactive: 6.1%. The same measure for `CN(C)C(=O)c1c([N+](=O)[O-])cc([N+](=O)[O-])cc1[N+](=O)[O-]`: inactive: -8.55%. `Nc1ccc2c(ccc3cccnc32)n1.O=[N+]([O-])c1cc([N+](=O)[O-])c(O)c([N+](=O)[O-])c1`: the inhibition is inactive: -153%. `CP(=O)(OC12CC3CC(CC(C3)C1)C2)OC12CC3CC(CC(C3)C1)C2`: the inhibition is inactive: -6.63%. As for `CCOC(=O)c1ccc(NP(C)(=O)Oc2ccc(Cl)cc2)cc1` (configuration not stated), the figure is inactive: -0.42%; as for `O=C1C(O)=C([N+](=O)[O-])C(=O)C(O)=C1[N+](=O)[O-]`, inactive: -31.2%; as for `Cc1cc(C)cc(OP(C)(=O)Nc2cccc(C(F)(F)F)c2)c1` (configuration not stated), inactive: 4.63%. The same measure for `COc1ccc(OP(C)(=O)Nc2ccccc2Br)cc1` (configuration not stated): inactive: -7.6%. The same measure for `COc1ccccc1OP(C)(=O)Nc1ccc(C)c(C)c1` (configuration not stated): inactive: -7.5%; for `CP(=O)(OCCOc1ccccc1)OCCOc1ccccc1`: inactive: 3.54%. Turning to `CCCCCCCCCCCCCCCC1C[N+](C)(C)CCOP(C)(=O)O1` (configuration not stated), the inhibition was inactive: -2.63%. Regarding `CP(=O)(Nc1ccc(Cl)cc1Cl)Oc1ccccc1` (configuration not stated), the inhibition was inactive: -2.36%.

Regarding `COc1ccccc1OP(C)(=O)Nc1ccc(Br)cc1` (configuration not stated), the inhibition was inactive: -0.38%. As for `CN(C)CCOC(=O)C(O)(c1ccccc1)C1CCCC1` (configuration not stated), the figure is inactive: 7.98%; as for `COc1ccc(OP(C)(=O)Nc2ccccn2)cc1` (configuration not stated), inactive: -2.3%.

For `O=[N+]([O-])c1cc([N+](=O)[O-])c(Nc2ccccn2)c([N+](=O)[O-])c1`, the inhibition was inactive: -1.55%. As for `Cc1c(NP(C)(=O)Oc2ccc(C(C)C)cc2)c(=O)n(-c2ccccc2)n1C` (configuration not stated), the figure is inactive: -0.51%; as for `CCc1ccc(OP(C)(=O)O)cc1`, inactive: -2.02%. The same measure for `CP(=O)(Nc1ccccn1)Oc1ccccc1` (configuration not stated): inactive: -1.15%; for `COc1ccccc1OP(C)(=O)Nc1ccc(C)cc1C` (configuration not stated): inactive: -1.23%; for `O=[N+]([O-])c1cc([N+](=O)[O-])c(Nc2ccc(Cl)cc2)c([N+](=O)[O-])c1`: inactive: 9.81%. Take `CC(C)c1ccc(OP(C)(=O)Nc2ccc(SC(F)(F)F)cc2)cc1` (configuration not stated): the inhibition was inactive: 8.78%.

Regarding `CP(=O)(Nc1ccccc1F)Oc1ccccc1` (configuration not stated), the inhibition was inactive: -4.17%.

As for `O=C(OCCN1CCN(CCOCc2ccccc2)CC1)C(O)(c1ccccc1)c1ccccc1`, the inhibition was inactive: 7.7%. The same measure for `O=C(OC1CN2CCC1CC2)c1ccc([N+](=O)[O-])cc1` (configuration not stated): inactive: 2.91%; for `CCN(CC)CCCNc1ccccc1[N+](=O)[O-].O=[N+]([O-])c1cc([N+](=O)[O-])c(O)c([N+](=O)[O-])c1`: inactive: 0.63%; for `COc1ccc(OP(C)(=O)Nc2ccc(SC(F)(F)F)cc2)cc1` (configuration not stated): inactive: 4.22%. As for `CCOC(=O)c1ccc(NP(C)(=O)Oc2ccc(F)cc2)cc1` (configuration not stated), the figure is inactive: -5.77%. For `CCN(CC)CCCOC(=O)C(O)(c1ccccc1)C1CCCCC1` (configuration not stated), the inhibition is inactive: -13%. In the case of `Cc1c([N+](=O)[O-])cc([N+](=O)[O-])c(Br)c1[N+](=O)[O-]`, the inhibition is inactive: 12.5%. As for `CCCCCOc1ccc(NP(C)(=O)Oc2ccc(Cl)cc2Cl)cc1` (configuration not stated), the figure is inactive: 1.35%; as for `O=[N+]([O-])c1cc([N+](=O)[O-])c(OC2CCCCC2O)c([N+](=O)[O-])c1` (configuration not stated), inactive: -2.55%. With `COc1ccc(OP(C)(=O)Nc2cccc(Br)c2)cc1` (configuration not stated), the inhibition is inactive: 12.2%. On to `COc1ccc(NP(C)(=O)Oc2ccccc2OC)cc1` (configuration not stated), for which the inhibition was inactive: 2.33%.

Turning to `CN(C)CCOC(=O)C(O)(c1ccccc1)C1CCCCC1` (configuration not stated), the inhibition is inactive: -2.21%. The same measure for `O=[N+]([O-])c1cc([N+](=O)[O-])c(NCC2CCS(=O)(=O)C2)c([N+](=O)[O-])c1` (configuration not stated): inactive: 11%; for `Cc1cc(-c2cccc3ccccc23)c(C)cn1.O=[N+]([O-])c1cc([N+](=O)[O-])c(O)c([N+](=O)[O-])c1`: inactive: -5.49%; for `O=[N+]([O-])c1ccc(OP2(=O)COCCO2)cc1` (configuration not stated): inactive: 1.84%. As for `Cc1c(C(c2ccc3c(c2)OCO3)c2c(C)n(C)n(-c3ccccc3)c2=O)c(=O)n(-c2ccccc2)n1C.O=[N+]([O-])c1cc([N+](=O)[O-])c(O)c([N+](=O)[O-])c1`, the figure is inactive: -4.23%. The same measure for `CP(=O)(Nc1ccc(SC(F)(F)F)cc1)Oc1ccc(F)cc1` (configuration not stated): inactive: 12.4%; for `CCOP(=O)(CC)OCC`: inactive: -3.54%. On to `CCOP(C)(=S)SCC(=O)NC(C)(CC)C(=O)O` (configuration not stated), for which the inhibition is inactive: -2.71%. The same measure for `CP(=O)(Nc1ccc2c(c1)OCCO2)Oc1ccccc1` (configuration not stated): inactive: -0.99%; for `O=[N+]([O-])c1cc([N+](=O)[O-])c(C(F)(F)F)c([N+](=O)[O-])c1O`: inactive: 6.16%. With `Cc1ccccc1NP(C)(=O)Nc1ccccc1C`, the inhibition was inactive: 1.85%.
